The values that follow come from patent US20250059204A1, “FUSED BENZOISOXAZOLYL COMPOUNDS AS KAT6A INHIBITORS” (Aurigene Oncology Limited, priority 2021, published 2025).

Amino acid sequences for entries named in this document (tags omitted). Residues count along the entry.
UniProt Q92794, 507-778 limits assumed: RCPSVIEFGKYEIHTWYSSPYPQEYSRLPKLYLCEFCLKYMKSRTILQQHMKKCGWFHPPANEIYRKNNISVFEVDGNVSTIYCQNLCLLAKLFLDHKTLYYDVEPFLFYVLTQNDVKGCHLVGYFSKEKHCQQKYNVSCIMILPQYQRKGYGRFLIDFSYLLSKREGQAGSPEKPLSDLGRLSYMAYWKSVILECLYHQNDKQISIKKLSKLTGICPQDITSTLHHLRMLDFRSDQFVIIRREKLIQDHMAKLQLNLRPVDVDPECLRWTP

Structures are written as SMILES.

This assay has as its target human-KAT6A (MYST domain 507-778 aa) (Homo sapiens (Human), UniProt Q92794). In words: KAT6A biochemical assay (TR-FRET). The note with it: read-out: KAT6A IC50, H4 peptide 200 nM, acetyl-CoA 600 nM.

Regarding `COc1ccccc1S(=O)(=O)Nc1noc2cc(Cn3cncn3)c3c(c12)OCC3`, the IC50 was found to be 61 nM.
